The test deals with T1, acetylcholinesterase (Mus musculus, UniProt P21836).
T1 construct: The mouse brain was homogenised by means of a 5-fold amount of a 100 mM phosphate buffer (pH 8.0) to prepare an enzyme sample; from tissue; host or cells: brain of male ddY mice, 5 to 7 weeks old (Japan SLC)
T1 sequence (P21836 32-614): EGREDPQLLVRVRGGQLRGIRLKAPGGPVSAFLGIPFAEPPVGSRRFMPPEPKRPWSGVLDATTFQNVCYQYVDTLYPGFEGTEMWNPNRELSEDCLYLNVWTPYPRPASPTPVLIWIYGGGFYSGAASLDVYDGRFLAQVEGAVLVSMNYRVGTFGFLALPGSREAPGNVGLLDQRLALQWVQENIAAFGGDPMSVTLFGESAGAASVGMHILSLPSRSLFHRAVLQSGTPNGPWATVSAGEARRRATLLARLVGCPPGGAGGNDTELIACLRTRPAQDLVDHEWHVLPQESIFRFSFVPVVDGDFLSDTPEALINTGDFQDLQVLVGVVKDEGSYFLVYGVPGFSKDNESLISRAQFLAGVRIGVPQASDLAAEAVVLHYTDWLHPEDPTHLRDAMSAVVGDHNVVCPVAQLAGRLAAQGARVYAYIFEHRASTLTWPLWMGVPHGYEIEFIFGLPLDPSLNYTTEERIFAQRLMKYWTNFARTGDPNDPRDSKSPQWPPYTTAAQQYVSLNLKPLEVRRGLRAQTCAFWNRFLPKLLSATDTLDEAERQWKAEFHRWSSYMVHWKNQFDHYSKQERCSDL
As to the kind of experiment: Assay of acetylcholinesterase inhibitory activity (Elman's method, mouse brain homogenate). It counts as biochemical. The settings on record: 100 mM phosphate buffer (pH 8.0), incubated for 30 minutes at room temperature, acetylthiocholine as substrate, read-out: Acetylcholinesterase inhibiting activity (IC₅₀).

One substance from patent EP0562832A1, “Indole and indazole derivatives, for the treatment and prophylaxis of cerebral disorders, their preparation and their use” (priority 1992, dated 1993) can be followed below.

pIC50: −log10 of the molar value.

For the substance Eseline [reference compound], the pIC50 is 8.00.
